## Yeast mating assay B: variants of the scFv Ab-14

Values reported by Li et al. 2023, doi:10.1038/s41467-023-39022-2 (FLAb copy).

Target peptide (SARS-CoV-2 spike, HR2 region): PDVDLGDISGINAS

Each scFv is VH, a (GGGGS)3 linker, VL, as in the parent Ab-14, and differs from it in the CDRs of the heavy chain only.
VH: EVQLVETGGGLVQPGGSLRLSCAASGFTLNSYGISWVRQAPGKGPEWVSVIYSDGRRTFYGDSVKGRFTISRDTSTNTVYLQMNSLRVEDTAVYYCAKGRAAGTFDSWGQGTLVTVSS
VL: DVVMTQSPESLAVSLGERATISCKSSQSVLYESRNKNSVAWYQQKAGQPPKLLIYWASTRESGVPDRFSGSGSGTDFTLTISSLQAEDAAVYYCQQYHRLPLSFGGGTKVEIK

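Phage display of a naive human antibody library on the peptide gave the parent. The variants were designed computationally from a first round of random CDR variants and then made and measured. Several design methods are mixed in this list. Affinity was read by AlphaSeq, a pooled yeast mating assay with surface-displayed partners. After mating in shaken culture at 30 °C for 16 h, diploids were selected and their barcode pairs sequenced. Read counts were normalised to the haploid input and turned into Kd by a linear fit to BCL2-family pairs of known affinity, for each replicate. Each pool was mated in six replicate cultures.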

Variants are written as CDR1, CDR2 and CDR3 of the heavy chain (limits as in the source). Parent: GFTLNSYGIS, VIYSDGRRTFYGDSVK, GRAAGTFDS. The Kd shown is the geometric mean over detected replicates; a lower Kd is a better binder. An entry "not detected" has no value in the source: the pair was not observed among the diploids in any replicate. This suggests poor binding but is not conclusive. Entries are sorted by rising average, undetected variants last.

Kd	replicates with signal	CDR-H1	CDR-H2	CDR-H3
100 pM	6 of 6	GFDLNEYGIS	VIYADGRRTFYADSVK	GENAGTFDV
160 pM	4 of 6	GFSLNSYGIS	VIYSDGRRTFYGDSVK	GQVAGTFDL
200 pM	6 of 6	GFDLNEYGIS	VIYADGKRTAYADSVK	GQVAGTFDM
220 pM	6 of 6	GFDLDEYGIS	VIYADGQRTFYADSVK	GTNAGTFDS
280 pM	6 of 6	GFDLDEYGIS	VIYADGQRTAYADSVK	GNVAGTFDQ
310 pM	6 of 6	GFDLNEYGIS	VIYADGVRTAYADSVK	GTVAGTFDV
350 pM	6 of 6	GFDLNEYGIS	VIYADGVRTAYSDSVK	GGNAGTFDL
370 pM	6 of 6	GFDLNEYGIS	VIYADGIRTAYADSVK	GNAAGTFDV
390 pM	6 of 6	GFDLNSYGIS	VIYSDGRRTFYDDSVK	GMLAGTFDS
420 pM	6 of 6	GFDLNEYGIS	VIYADGRRTQYIDSVK	GNNAGTFDS
430 pM	6 of 6	GFDLNEYGIS	VIYADGRRTAYTDSVK	GEFAGTFDS
530 pM	6 of 6	GFSLNEYGIS	VIYSDGRRTFYSDSVK	GRSAGTFDS
640 pM	6 of 6	GFDLDEYGIS	VIYADGMRTAYSDSVK	GETAGTFDT
670 pM	6 of 6	GFDLNEYGIS	VIYADGMRTAYADSVK	GQNAGTFDI
940 pM	6 of 6	GFDLNEYGIS	VIYADGMRTAYTDSVK	GQVAGTFDV
1.2 nM	4 of 6	GFDLNEYGIS	VIYADGMRTAYTDSVK	GENAGTFDV
1.2 nM	6 of 6	GFPLNSYGIS	VIYSDGRRTFYIDSVK	GQLAGTFDS
1.2 nM	6 of 6	GFDLNEMGIH	VIYADGIRTAVSNDVK	GNVAGTIDV
1.2 nM	6 of 6	GFTLNSYGIS	VIYSDGQRTFYADDVK	GRVAGTFDV
1.7 nM	6 of 6	GFELNSYGIS	VIYSDGRRTFYGDSVK	GRTAGTFDS
2.1 nM	6 of 6	GFDLNSYGIS	VIYSDGRRTFYHDSVK	GKAAGTFDS
2.1 nM	6 of 6	GFTLNSYGIS	VIYSDGERTFYGDSVK	GYAAGTFDS
2.4 nM	6 of 6	GFDLNEYGIS	VIYADGRRTFYSDSVK	GTEGGTFDM
5.1 nM	6 of 6	GFSLNEYGIS	VIYSDGRRTFYADHVK	GRAAGTFDS
5.8 nM	6 of 6	GFDLNSFGIS	VIYSDGRRTFYGDSVK	GQLAGTFDS
6.0 nM	5 of 6	GFVLNSYGIS	VIYSDGRRTFYADSVK	GREAGTFDT
8.0 nM	4 of 6	GFTLNQYGIS	VIYSDGHRTFYGDSVK	GRAAGTFDS
8.3 nM	6 of 6	GFTLNSYGIS	VIYSDGKRTFYGDSVK	GRTAGTFDS
8.3 nM	4 of 6	GFQLNSYGIS	VIYSDGQRTFYGDSVK	GRTAGTFDS
8.3 nM	6 of 6	GFVLNSYGIS	VIYSDGRRTFYADSVK	GQTAGTFDT
8.4 nM	6 of 6	GFQLNSYGIS	VIYSDGRRTFYGDSVK	GSAAGTFDS
9.8 nM	1 of 6	GFTLNSYGIS	VIYSDGRRTFYIDSVK	GLAAGTFDS
10 nM	3 of 6	GFSLNSYGIS	VIYSDGRRTFYADKVK	GRTAGTFDN
10 nM	6 of 6	GFTLNQYGIS	VIYSDGKRTFYSDSVK	GRAAGTFDS
22 nM	2 of 6	GFWLNDYGIS	VIYSDGRRTMYGDSVK	GRQAGTFDS
24 nM	5 of 6	GFDLNSYGIS	VIYSDGRRTFYKDSVK	GRVAGTFDS
32 nM	5 of 6	GFELNSYGIS	VIYSDGRRTFYIDSVK	GRTAGTFDK
37 nM	1 of 6	GFTLNSYGIS	VIYSDGYRTFYADSVR	GYAAGTFDS
51 nM	4 of 6	GADLNEYGIS	VIYADGRQVYYENSFK	GHVAGTFDS
88 nM	2 of 6	GFALNSYGIS	VIYSDGRRTFYGDSVK	GRWAGTFDS
150 nM	1 of 6	GFCLNSYGIS	VIYSDGMRTFYGDSVK	GRAVGTFDS
190 nM	6 of 6	KFTLNSYGIS	VIYSDGRRTFYADSVK	GRLAGTFDS
290 nM	1 of 6	GFDIEEYGIS	VIYADGIRQAYKDKVK	GWNVGRFSV
670 nM	1 of 6	GFTLNSYGIS	VIYSDGRRVAYGRSVK	GRAAGTNDS
1.0 µM	2 of 6	GFTLNAYGIS	VIYSDGRRTFYADSVK	GTSSGTFDS
34 µM	1 of 6	GFTLNSYGMS	VIYSDGRRTWYGQSVK	GRAAGTFDS
not detected	0 of 6	GDSLDEFGIS	VIYADGQRKAYSDNVK	GVGQAVLFD
not detected	0 of 6	GFTLNSYGIS	VIYSDGRRTFYGDSVK	GRAAGMFDS
not detected	0 of 6	GFTLNSYGGS	VIYSDGRRTFYGDSVK	GRAAGTFES
not detected	0 of 6	GFGLDEYGIS	VIYADGKRASYADNVK	GFNYGVDIL
not detected	0 of 6	GFTLQSYGIS	VIYSDGRRTFYHDSVK	GRAAGTADS
not detected	0 of 6	GFTLNSYGIS	VIYADGRRTFYGDSVK	GRAAGTFTK
not detected	0 of 6	GFTLDSYGES	VYYSDGRRTFYGDSVK	GRAAGTALS
not detected	0 of 6	GFNLEEVGIS	VIYADGLRSAYVDAVK	GGVGDVDFV
not detected	0 of 6	GFTLNSYGIS	VIYSDGRRTFYMDSVK	GRVAGTFDP
not detected	0 of 6	GFDLNSYGIS	VIYSDGRRTFYGDSVK	GRAAGTFCS
not detected	0 of 6	GFSLNEYGIS	VIYADGKSRHYADSVK	GLISGFFDI
not detected	0 of 6	GFTLNSYGIS	VIYSDGRRTFYGDSVK	GRAHGTFEQ
not detected	0 of 6	DFTLNSYGIS	VIYSDGRRTFYGDAVK	GEAVGMFDS
not detected	0 of 6	GFGLMEYGIS	VIYADGMRTSYANSFK	GAHAGTFDE
not detected	0 of 6	GFELNSYGIS	VIYSDGRRTFYGDSVK	GRMAGSFDT
not detected	0 of 6	LFTLNSYGIS	VIYSDGRRTFYGDSVK	GREAGTFRS
not detected	0 of 6	GFALNSYGIS	VIYSDGRRTAYGDSVK	GRAAGTFDS
not detected	0 of 6	GFTLDSYGIS	VIYMDFRRTFYGDSVK	GQAAGTALS
not detected	0 of 6	GENLDEYGIS	VIYADGVREAYANNVK	GEQGSFFIT
not detected	0 of 6	GFCLNSYGIS	VIYSDGRRTFYGDSVK	IDIAGTFDS
not detected	0 of 6	GFTLNNYGIS	VIYSDGTRTFYSDSVK	GRAAGTFDS
not detected	0 of 6	GFDLNSFGIS	VIYSDGRRTFYLDSVK	GQAAGTFDS
not detected	0 of 6	GFTLNSYGIS	VIYSDGRRTAYGDSVK	GRAAGQFTS

Again, the first 6 entries without any signal:

CDR-H1,CDR-H2,CDR-H3,Kd,replicates with signal
GDSLDEFGIS,VIYADGQRKAYSDNVK,GVGQAVLFD,not detected,0 of 6
GFTLNSYGIS,VIYSDGRRTFYGDSVK,GRAAGMFDS,not detected,0 of 6
GFTLNSYGGS,VIYSDGRRTFYGDSVK,GRAAGTFES,not detected,0 of 6
GFGLDEYGIS,VIYADGKRASYADNVK,GFNYGVDIL,not detected,0 of 6
GFTLQSYGIS,VIYSDGRRTFYHDSVK,GRAAGTADS,not detected,0 of 6
GFTLNSYGIS,VIYADGRRTFYGDSVK,GRAAGTFTK,not detected,0 of 6

Values of this round are not directly comparable with the first-round values of the same sequences. As a blank, each scFv also met three strains without target: over all heavy chain designs, 1% of these pairings were detected, typically at 120 nM and seldom below 7.0 nM. The authors' rule: three or more of the six replicates give a measured affinity, fewer mean a poor binder.